{
  "source": "PubChem BioAssay AID740",
  "about": "(SRMLSC, 2007)",
  "note": "Only a part is listed here, and it is no random draw. Some results for these compounds are left out of this collection, so the calls shown say nothing about other tests. Calls of active or inactive are those of the source. Cut-off read from the data, not from the text of the source: active = inhibition above about 25%; inactive = the rest.",
  "data": [
    {"assay": "unspecified inhibition readout at 50 µM (AID 740)", "details": "unspecified screen; stronger effect = higher value", "values": [
      {"smiles": "CC(C)N1C(=O)CC2(CCN(CCOC(=O)C(O)(c3ccccc3)c3ccccc3)CC2)C1=O", "inhibition": "inactive"},
      {"smiles": "CN(C)c1cccc(C(=O)NCC2(N(C)C)CCCCC2)c1", "inhibition": "inactive: 1.93%"},
      {"smiles": "O=C(OC1CN2CCC1CC2)C(CO)(c1ccccc1)c1ccccc1", "note": "(stereo not drawn)", "inhibition": "inactive"}
    ]}
  ]
}
